Measured values as given in patent US6890727B2, “Diagnostic assay for Alzheimer's disease: assessment of Aβ abnormalities” (The General Hospital Corporation, priority 1994, dated 2005).

Experiment: 65Zn2+ binding to immobilized peptide (dot-blot, Scatchard competition analysis)
Conditions: dot-blot or blot of tryptic digest probed with ^65Zn^2+
Method: ^65Zn^2+ Binding Studies—Dissolved peptides (1.2 nMol, unless other wise stated) were dot-blotted onto polyvinylidene difluoride membrane (0.2-μm pore size; Pierce Chemical Co.), washed twice with chelating buffer (200 μl×100 mM NaCl, 20 mM Tris-HCl, 1 mM EDTA, pH 7.4), then five times with blocking buffer (200 μl×100 mM NaCl, 20 mM Tris-HCl, 1 mM MnCl2, pH 7.4), and then incubated (60 min, 20° C.) with ^65Zn (unless otherwise stated 130,000 cpm, […] ^65ZnCl2 in 200 μl of blocking buffer±competing metal ion chloride). The dot-blot was then washed with blocking buffer (5×200 μl), the dot excised, placed in a test tube, and assayed by γ-counting (11% efficiency). The equilibration volume for stoichiometry estimates was regarded as 6×200 μl. The 214 nm UV absorbance of the unbound flow-through was assayed to determine the total amount of peptide remaining bound onto the membrane. […] To alter the pH, the ^65Zn incubation was carried out in the presence of 100 mM buffer: MOPS (pH 6.5-7.0), MES (pH 5.0-6.0), acetate (pH 3.5-4.5). The dot-blot apparatus was washed with detergent and EDTA (50 mM) then rinsed and siliconized between use.
Aliquots of Aβ were incubated (60 min) with ^65Zn^2+ in the presence of varying concentrations of unlabeled Zn^2+ (0.01-50 μM total). Values shown are means±S.D., n≧3. […] (FIG. 1b) depicts specificity of the Zn^2+ binding site for various metals. […]

zinc binding (in words) | Substance
do not individually bind zinc | 1-17: Aβ fragment, residues 1-17
do not individually bind zinc | 12-28: Aβ fragment, residues 12-28
